Assay [1] deals with turkey β3C-adrenoceptor (tβ3C) (Meleagris gallopavo, UniProt A0A803YLI8). In words: CRE-SPAP production, CHO tβ3C cells. The note with it: read-out: % isop max.
Assay [2] deals with T1, turkey β4C-adrenoceptor (tβ4C) (Meleagris gallopavo, UniProt P43141).
T1 sequence (P43141 1-428): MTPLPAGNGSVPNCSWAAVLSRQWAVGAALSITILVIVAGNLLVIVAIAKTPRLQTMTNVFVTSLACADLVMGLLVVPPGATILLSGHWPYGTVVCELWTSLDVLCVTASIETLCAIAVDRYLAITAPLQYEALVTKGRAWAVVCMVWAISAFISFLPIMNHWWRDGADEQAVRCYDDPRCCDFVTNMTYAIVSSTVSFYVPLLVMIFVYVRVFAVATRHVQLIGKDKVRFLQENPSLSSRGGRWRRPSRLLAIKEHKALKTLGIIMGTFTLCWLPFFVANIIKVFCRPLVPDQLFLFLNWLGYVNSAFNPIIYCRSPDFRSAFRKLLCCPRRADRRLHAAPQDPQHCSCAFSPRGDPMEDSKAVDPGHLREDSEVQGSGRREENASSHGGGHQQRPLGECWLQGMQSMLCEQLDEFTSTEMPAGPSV
The note with it: CRE-SPAP, % of 10 µM isoprenaline maximum, CHO tβ4C cells.

Chains of the proteins cited; added tags and fusions are not shown.
UniProt A0A803YLI8, entry or part of it: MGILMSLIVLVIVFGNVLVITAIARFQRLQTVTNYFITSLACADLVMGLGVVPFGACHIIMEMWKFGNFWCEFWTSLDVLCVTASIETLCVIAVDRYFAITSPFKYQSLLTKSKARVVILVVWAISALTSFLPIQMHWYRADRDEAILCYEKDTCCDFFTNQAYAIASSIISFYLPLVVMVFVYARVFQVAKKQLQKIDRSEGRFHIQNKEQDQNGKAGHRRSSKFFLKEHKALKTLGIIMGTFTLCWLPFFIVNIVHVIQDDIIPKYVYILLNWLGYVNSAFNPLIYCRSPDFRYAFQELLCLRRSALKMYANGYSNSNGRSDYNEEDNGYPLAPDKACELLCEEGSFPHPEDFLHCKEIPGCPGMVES

The structures appear in SMILES notation.

On to `CC(Cc1ccc(O)cc1)NCC(O)c1cc(O)cc(O)c1` (centres unmarked) [Fenoterol], for which the Emax in assay [1] was found to be 106 ± 3%. In assay [2], the “% isop max” value was determined as 99.9±3.0%.
